The target of this experiment is hGPR120 (Homo sapiens, UniProt Q5NUL3). Kind of experiment: Measurement of activity of GPR120 agonist (cell-based calcium fluorescence assay). To be noted: CHO-K1 cells expressing Ga16 and hGPR120, Calcium 5 dye fluorescence; activity class.

Amino acid sequences for entries named in this document (tags omitted).
UniProt Q5NUL3, whole entry: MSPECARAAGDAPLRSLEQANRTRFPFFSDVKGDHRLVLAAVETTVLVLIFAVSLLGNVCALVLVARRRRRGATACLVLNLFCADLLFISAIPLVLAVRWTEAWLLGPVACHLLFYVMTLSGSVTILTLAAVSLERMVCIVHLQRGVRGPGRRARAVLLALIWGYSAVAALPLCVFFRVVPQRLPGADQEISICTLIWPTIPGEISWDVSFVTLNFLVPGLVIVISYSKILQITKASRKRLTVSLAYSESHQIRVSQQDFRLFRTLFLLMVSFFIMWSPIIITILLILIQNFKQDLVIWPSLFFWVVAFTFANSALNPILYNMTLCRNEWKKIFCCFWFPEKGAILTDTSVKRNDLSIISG

Where only a bound is given, the exact number is not on record here.

Turning to `CC(CCC(=O)O)Sc1ccc(-c2cccnc2SC2CCCC2)cc1` (stereo not shown), the EC50 (in general, the concentration that produces a half-maximal response) was less than 200 nM.

Values taken from patent publication US10221138B2, “Biaryl derivatives as GPR120 agonists” (LG CHEM, LTD., priority 2013, dated 2019).
